Compound activity as filed in PubChem BioAssay.
The list is not random: actives were taken first. Their share in the collection is about 13%.
LMNA splice mod – modulators of lamin A splicing | HeLa LMNA splicing GFP/RFP minigene ratio, 48 h | Potency, µM (titrated, usually from 46.1 µM), hits mostly inhibitors | 200,000 tested, 0.01% active | AID 1487; active means well fitted inhibition curve with a large enough effect in the signal ratio, with a control signal flat, not every such curve was filed as active; inconclusive means small, poorly fitted or top-dose-only effect, or effect the other way, or a change in a side signal; the % refers to the signal ratio
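S3 HeLa cells stably expressing lamin A-EGFP splicing minigene plus DsRed2, 600 cells/well, 48 h compound exposure at 37C. Laser-scanning cytometry; analysed as GFP (500-530 nm)/RFP (575-640 nm) total intensity ratio; 0.5% DMSO vehicle.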
G9a inh – inhibitors of human histone lysine methyltransferase G9a; Potency, µM (titrated, usually from 102 µM), most hits filed as inhibitors; 350,000 tested, 8.8% active; G9a H3K9 monomethylation, AlphaScreen, 2 h; AID 504332; further: nearly all actives have a fitted effect of over 75% in size
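Readings reflect AlphaScreen signal from monomethyl-H3K9 antibody detection. HMT at 20 nM; substrate b-H3K9 500 nM; cofactor SAM 20 uM; 2 h RT reaction; compounds tested as titrations in qHTS with 15 min preincubation.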
JMJD2E inh – blocks human JMJD2E demethylase activity; 230,000 tested, 1.6% active; Potency, µM (doses to about 57.1 µM), most hits filed as inhibitors; B2RXH2; JMJD2E catalytic domain, FDH-coupled NADH fluorescence (FDH is formaldehyde dehydrogenase); further: nearly all actives have a fitted effect of over 50% in size
ALDH1A1 block – ALDH1A1 (human) enzyme inhibition | 220,000 tested, 7.3% active | AID 1030 | Purified ALDH1A1, NADH fluorescence, propionaldehyde substrate | Potency, µM (highest dose often 75.3 µM), most hits filed as inhibitors | P00352; active means well fitted inhibition curve with a large enough effect, not every such curve was filed as active; inconclusive means small, poorly fitted or top-dose-only effect, or another doubt; inactive means no such curve, though single readings can be large or run the other way
miR-21 reporter – raises the signal of a miR-21 reporter | HeLa miR-21 FLuc reporter, luciferase, 48 h | Potency, µM (highest dose often 38.3 µM) | 340,000 tested, under 10 active | AID 2288; active = well fitted rising curve with a large enough effect; inconclusive = small, poorly fitted or top-dose-only effect; inactive = no such curve, though single readings can be large or run the other way;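 note: miR-21 action dims this reporter so a rising signal means less miR-21 action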
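Luminescence from a firefly luciferase reporter carrying a miR-21 binding site downstream, stably expressed under a CMV promoter in HeLa cells that make miR-21 endogenously, reports miRNA modulation after 48 h compound exposure up to approximately 40uM final.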
Sfp inh – inhibitors of Bacillus subtilis Sfp phosphopantetheinyl transferase; Q9F4F7; Biochemical Sfp PPTase activity, qHTS; Potency, µM, hits mostly inhibitors; 310,000 tested, 3.5% active;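 further: the enzyme is Sfp with the accession as filed and its product quenches rhodamine fluorescence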
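After 15 min at room temperature with compound, 15 nM Sfp received 5 uM rhodamine-CoA plus 12.5 uM BHQ-2-ybbR (50 mM Hepes pH 7.6, 10 mM MgCl2). Rate came from the fluorescence difference over 30 min, ex 525/em 598 nm.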
Numbers stand for hits; [ ] = remark or other dose. Unless noted, the call rests on the fitted dose curve; in most records, active means well fitted curve in the direction sought with a large enough effect; inconclusive means small, poorly fitted or top-dose-only effect, or another doubt; inactive means no such curve, though single readings can be large; an effect the other way counts as inactive or inconclusive.

`O=C(c1ccccc1NS(=O)(=O)c1cccc([N+](=O)[O-])c1)N1CCCC1` gave G9a inh inactive, miR-21 reporter inactive and Sfp inh inactive.
For O=C(Cc1ccc(Br)cc1)N/N=C/c1ccc(-c2cccc(C(=O)O)c2)o1 the results were G9a inh inconclusive, JMJD2E inh inconclusive, miR-21 reporter inactive and Sfp inh inactive.
For Cc1nnc(N/N=C\c2ccc(-c3cccc(C(=O)O)c3)o2)n1N the results were G9a inh 39.8µM, JMJD2E inh inconclusive, ALDH1A1 block inconclusive, miR-21 reporter inactive and Sfp inh inactive.
Screening Cc1nnc(N/N=C/c2ccc(-c3ccc(Br)cc3)o2)n1N returned LMNA splice mod inactive, G9a inh inactive, JMJD2E inh 5.62µM, ALDH1A1 block 7.94µM, miR-21 reporter inactive and Sfp inh 56.2µM.
CCOc1ccc(C(=O)Nc2ccc3c(c2)CCCN3S(=O)(=O)c2ccc(C)cc2)cc1 was read as LMNA splice mod inactive, G9a inh inactive[12.7 µM] and miR-21 reporter inactive.
CCCN(c1ccccc1C(=O)O)S(=O)(=O)c1ccc2c(c1)n(C)c(=O)n2C was read as G9a inh inactive, miR-21 reporter inactive and Sfp inh inactive.
`COc1ccccc1NS(=O)(=O)c1cccc(NC(=O)CCNC(=O)c2ccccc2OC)c1` gave G9a inh inactive[12.7 µM].
`CN(Cc1nccn1C)C(=O)CC1C(=O)NCCN1Cc1ccccc1C(F)(F)F` (stereo unspecified) gave LMNA splice mod inactive, G9a inh 50.1µM, JMJD2E inh inactive, ALDH1A1 block inactive, miR-21 reporter inactive and Sfp inh inactive.
Screening Cc1ccccc1CN1CCNC(=O)C1CC(=O)N(C)CCC1CCOCC1 (stereo unspecified) returned G9a inh inactive[0.0925 µM], miR-21 reporter inactive and Sfp inh inactive.
`Cc1nnc(CN(C)C(=O)CC2C(=O)NCCN2Cc2ccccc2C)o1` (stereo unspecified) gave G9a inh 35.5µM, miR-21 reporter inactive and Sfp inh inactive.
For CCn1ccnc1CN(C)C(=O)CC1C(=O)NCCN1Cc1c(F)cccc1Cl (stereo unspecified) the results were G9a inh inconclusive, JMJD2E inh inactive, ALDH1A1 block inconclusive, miR-21 reporter inactive and Sfp inh inactive.
CN(CCc1cn[nH]c1)C(=O)CC1C(=O)NCCN1Cc1ccccc1C(F)(F)F (stereo unspecified) was read as G9a inh 44.7µM, JMJD2E inh inactive, ALDH1A1 block inactive, miR-21 reporter inactive and Sfp inh inactive.
CN(Cc1nccn1C)C(=O)CC1C(=O)NCCN1Cc1ccc(F)cc1Cl (stereo unspecified) was read as G9a inh 39.8µM, miR-21 reporter inactive and Sfp inh inactive.
Screening Cc1cnc(CNc2ncncc2-c2ccoc2)cn1 returned LMNA splice mod inactive, G9a inh inactive[0.501 µM], ALDH1A1 block inconclusive and Sfp inh inactive.
Screening COc1cc(C=O)ccc1OCCOCCOc1c(C)cc(Cl)cc1Cl returned LMNA splice mod inactive, G9a inh inactive, JMJD2E inh inactive, ALDH1A1 block inconclusive, miR-21 reporter inactive and Sfp inh inconclusive.
COc1cc(C=O)ccc1OCCOCCOc1ccc(Cl)cc1 was read as LMNA splice mod inactive, G9a inh inactive[12.7 µM], JMJD2E inh inactive, ALDH1A1 block 3.55µM, miR-21 reporter inactive and Sfp inh inactive.
CCOc1cc(NC(=S)NCc2ccccc2)c(OCC)cc1NC(=O)C(C)C was read as miR-21 reporter inactive and Sfp inh inactive.
Screening Cc1ccc(-c2nc(SC(C)C(=O)N3CCOCC3)n[nH]2)cc1 (stereo unspecified) returned G9a inh inactive, miR-21 reporter inactive and Sfp inh inactive.
`NS(=O)(=O)c1ccc(CNS(=O)(=O)c2ccc(Cl)nc2)cc1` gave G9a inh 56.2µM, JMJD2E inh inactive, ALDH1A1 block 22.4µM, miR-21 reporter inactive and Sfp inh inactive.
Cc1csc(CNc2ncnc3ccc(-c4ccc5c(ccn5C)c4)cc23)c1 was read as G9a inh inactive[12.7 µM].
